{"sequences": {"note": "The chains behind the UniProt entries cited, without tags or fusion partners. Residues count along the entry.", "UniProt P02768, 25-609 limits assumed": "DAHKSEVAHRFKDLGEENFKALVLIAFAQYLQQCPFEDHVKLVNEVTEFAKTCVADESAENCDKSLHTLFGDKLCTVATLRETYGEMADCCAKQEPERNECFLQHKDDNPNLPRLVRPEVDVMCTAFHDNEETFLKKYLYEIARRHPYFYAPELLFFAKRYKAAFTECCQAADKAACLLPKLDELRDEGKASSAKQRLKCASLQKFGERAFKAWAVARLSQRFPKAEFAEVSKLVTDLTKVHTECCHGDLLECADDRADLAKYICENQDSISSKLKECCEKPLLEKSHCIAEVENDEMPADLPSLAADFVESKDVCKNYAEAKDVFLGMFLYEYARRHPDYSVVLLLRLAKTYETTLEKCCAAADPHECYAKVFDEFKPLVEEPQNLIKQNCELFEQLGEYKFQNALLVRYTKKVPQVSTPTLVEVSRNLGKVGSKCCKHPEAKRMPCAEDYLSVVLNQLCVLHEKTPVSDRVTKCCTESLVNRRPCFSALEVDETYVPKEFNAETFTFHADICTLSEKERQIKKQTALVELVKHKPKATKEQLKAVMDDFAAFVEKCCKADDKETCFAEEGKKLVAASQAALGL"}, "source": "paper PMC3625562", "about": "“Rapid Screening of Drug-Protein Binding Using High-Performance Affinity Chromatography with Columns Containing Immobilized Human Serum Albumin” (Journal of Analytical Methods in Chemistry, 2013)", "key": {"plasma proteins": {"tested_on": "plasma proteins", "test": "PPB experiment by ultrafiltration", "conditions": "plasma, 10, 40, 200, 100, 2000, 100 ng/mL for A, B, C, D, E, F; 37°C 30 min; Microcon YM-30, triplicates"}, "[1]": {"biological_target": "immobilized human serum albumin (HSA) (Homo sapiens, UniProt P02768)", "test": "Drug-protein binding screening by HPLC on immobilized HSA column (HSA-HPLC)", "conditions": "PPB class from retention time on HSA column (cut-off 4.55 min) and pKa"}}, "note": "Several values for one entry are separate records, joined by “and”; a condition that tells them apart may be missing. Identical values can stand only once."}
{"molecule": "COC12C=CC3(CC1C(C)(O)CCc1cccs1)C1Cc4ccc(O)c5c4C3(CCN1CC1CC1)C2O5", "note": "(centres unmarked)", "values": [{"measurement": "PPB by ultrafiltration", "setting": "plasma proteins", "value": "94.86 ± 0.56% and 95.0%"}, {"measurement": "Screening result by HSA-HPLC (PPB)", "setting": "[1]", "value": ">90", "unit": "%"}]}
